Experimental data reported in paper PMC4917279 (Journal of Medicinal Chemistry, 2016).

Amino acid sequences for entries named in this document (tags omitted). A change or cut given only in a name is not applied to a line headed by its entry.
UniProt Q9NRG4: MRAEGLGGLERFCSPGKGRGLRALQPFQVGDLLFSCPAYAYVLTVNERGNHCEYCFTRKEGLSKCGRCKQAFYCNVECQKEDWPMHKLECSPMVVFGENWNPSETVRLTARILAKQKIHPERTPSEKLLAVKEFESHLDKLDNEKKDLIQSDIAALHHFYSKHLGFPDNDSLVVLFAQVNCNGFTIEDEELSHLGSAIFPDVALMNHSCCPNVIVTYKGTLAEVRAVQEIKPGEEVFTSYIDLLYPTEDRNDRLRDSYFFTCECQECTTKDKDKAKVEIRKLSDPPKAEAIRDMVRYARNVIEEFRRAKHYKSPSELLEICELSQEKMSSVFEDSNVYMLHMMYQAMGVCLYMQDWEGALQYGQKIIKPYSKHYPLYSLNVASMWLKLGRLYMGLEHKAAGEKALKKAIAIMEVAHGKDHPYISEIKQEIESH

Molecular target: SMYD2 (Homo sapiens, UniProt Q9NRG4)
Assay: Mechanism-of-inhibition studies (SPA, Cheng-Prusoff)
Format: biochemical
Set-up: The SMYD2 full-length enzyme with an N-terminal 6xHis tag was expressed in Escherichia coli; made in house; host or cells: Escherichia coli
Details: SAM titration, Cheng–Prusoff uncompetitive model

In the case of `CCN(C(=O)CO)[C@H]1CN(/C(=N\C#N)Nc2cccc(OC(F)F)c2)N=C1c1ccc(Cl)c(Cl)c1` [(S)-4], the “αKi(app)” value was 28 ± 3 nM.
